Only a part is listed here, and it is no random draw. Some results for these compounds are left out of this collection, so the calls shown say nothing about other tests. Records with an inconclusive call do not appear. Calls of active or inactive are those of the source. Calls follow the shape of the dose curve; as a rule, active = well fitted inhibition curve with a large enough effect; inconclusive = small, poorly fitted or top-dose-only effect; inactive = no such curve, though single readings can be large or run the other way.
% is scaled to controls: 0 for no effect and ±100 for the full control effect.

By UniProt entry, the sequences of proteins in these tests, tags left out.
UniProt P16050, whole entry: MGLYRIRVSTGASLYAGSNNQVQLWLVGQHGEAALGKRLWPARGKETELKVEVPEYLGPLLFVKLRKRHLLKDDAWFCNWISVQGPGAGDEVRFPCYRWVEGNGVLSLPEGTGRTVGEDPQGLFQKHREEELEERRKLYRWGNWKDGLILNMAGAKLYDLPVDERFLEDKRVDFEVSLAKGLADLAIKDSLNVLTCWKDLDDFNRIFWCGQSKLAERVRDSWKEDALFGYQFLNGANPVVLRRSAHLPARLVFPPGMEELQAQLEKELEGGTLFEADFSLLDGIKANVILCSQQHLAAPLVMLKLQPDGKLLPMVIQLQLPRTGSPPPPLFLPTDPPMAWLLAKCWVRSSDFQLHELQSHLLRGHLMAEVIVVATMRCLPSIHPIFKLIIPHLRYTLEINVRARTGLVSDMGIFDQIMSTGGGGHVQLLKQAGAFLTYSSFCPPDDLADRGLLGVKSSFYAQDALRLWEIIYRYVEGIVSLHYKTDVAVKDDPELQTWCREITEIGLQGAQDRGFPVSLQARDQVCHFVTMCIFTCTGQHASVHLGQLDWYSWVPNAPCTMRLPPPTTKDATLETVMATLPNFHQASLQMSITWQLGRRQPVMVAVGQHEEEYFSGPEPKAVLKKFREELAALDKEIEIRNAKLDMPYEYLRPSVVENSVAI

In this test the target is Polyunsaturated fatty acid lipoxygenase ALOX15 (Homo sapiens) (UniProt P16050). The test can be described thus: qHTS Assay for Inhibitors of 15-hLO (15-human lipoxygenase). Also: nearly all actives have a fitted effect of over 55% in size. The following applies: purified 15hLO-1, xylenol orange hydroperoxide absorbance; at 11.4 µM (top of the series) unless noted.
In the case of `C=C(C)C#C[C@@](O)(C(=O)OC1CCN(C)CC1)c1ccccc1`, the activity change, negative = inhibition is inactive: 4.32%.
As to `CN1CC[C@H](OC(=O)[C@](O)(c2ccccc2)C2CCCC2)C1`, the activity change, negative = inhibition was inactive: 7.32%.
To `O=C(OC1CN2CCC1CC2)C(CO)(c1ccccc1)c1ccccc1` (stereo not given) belongs inactive: -23.1% [at 57.1 µM]; to `CN1CCC[C@H](OC(=O)[C@](O)(c2ccccc2)C2CCCC2)C1`, inactive: 6.54%; to `CN(C)c1cccc(C(=O)NCC2(N(C)C)CCCCC2)c1`, inactive: -3.21% [at 57.1 µM].

The record behind these values is PubChem BioAssay AID887 (National Center for Advancing Translational Sciences (NCATS), 2007).
